{"source": "paper PMC6915736", "target": "F-actin (actin filaments polymerised from G-actin purified from rabbit muscle) (rabbit) (UniProt P68135)", "experiment": "co-sedimentation; F-actin and EFA6-Ct, each 4 µM, incubated together for 15 min, low-speed centrifugation (16000 g, 5 min); supernatants and pellets by SDS-PAGE and Coomassie blue; four independent experiments"}
{"substance": "N-terminally His-tagged EFA6-Ct (C-terminal domain of EFA6A, residues 490-645) (domain or fragment)", "values": [{"measurement": "percent of EFA6-Ct in the low-speed pellet with F-actin", "value": 24, "unit": "%"}]}
